The values that follow come from patent US6680058B1, “Compositions and methods for contraception in or sterilization of mammals” (Board of Supervisors of Louisiana State University and …, priority 1997, dated 2004).

The assay deals with T1, LH receptor on bovine granulosa cells and bovine small luteal cells (bovine), Q28005.
T1 chain: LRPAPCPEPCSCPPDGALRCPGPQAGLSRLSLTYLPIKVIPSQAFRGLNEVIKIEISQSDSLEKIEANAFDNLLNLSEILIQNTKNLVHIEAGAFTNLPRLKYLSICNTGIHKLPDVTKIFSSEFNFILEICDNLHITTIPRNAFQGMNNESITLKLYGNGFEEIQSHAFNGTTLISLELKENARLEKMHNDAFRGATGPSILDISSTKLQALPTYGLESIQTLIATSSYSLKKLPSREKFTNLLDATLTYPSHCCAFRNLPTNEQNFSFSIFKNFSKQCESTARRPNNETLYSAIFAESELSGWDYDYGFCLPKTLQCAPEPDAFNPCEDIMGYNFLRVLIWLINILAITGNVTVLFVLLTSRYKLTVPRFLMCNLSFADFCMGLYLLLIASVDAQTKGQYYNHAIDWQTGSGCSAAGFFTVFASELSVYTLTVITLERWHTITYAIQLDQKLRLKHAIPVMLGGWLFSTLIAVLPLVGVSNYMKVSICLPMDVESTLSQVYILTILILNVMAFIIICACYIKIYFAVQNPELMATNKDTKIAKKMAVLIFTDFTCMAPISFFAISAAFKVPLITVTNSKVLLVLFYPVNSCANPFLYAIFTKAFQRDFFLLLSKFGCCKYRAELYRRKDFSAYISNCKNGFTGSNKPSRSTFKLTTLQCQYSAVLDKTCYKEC
Description: cell-based or functional assay.

As for FALALKALKKALKKLKKALKKALSYAVALSCQCALCRR (modifications not checked) [hecate-bLH conjugate], the killing of bovine granulosa cells at 1 µM (fold of cells killed by hecate alone) worked out at 2.
